Earlier results as cited in patent US20040143023A1, “Materials and methods for synthesizing stilbenes” (priority 2000, published 2004).

System: tubulin

## COc1ccc(/C=C\c2cc(OC)c(OC)c(OC)c2)cc1O [cis-combretastatin A-4, Z-1-(3′-Hydroxy-4′-methoxyphenyl)-2-(3″,4″,5″-trimethoxyphenyl)ethene]
  binding to tubulin: binding strongly
